For three compounds, Ratio IC50 results are on record in ChEMBL document CHEMBL6096636 (Bioorg Med Chem, 2024).

Common to all, as to assay type: functional
The nature of assay [1]: Resistance index, ratio of IC50 for chloroquine resistant Plasmodium falciparum clinical isolate GB4 to IC50 for erythrocytic stage of Plasmodium falciparum 3D7.
Assay [2] can be described thus: Resistance index, ratio of IC50 for sulfadoxine-pyrimethamine and mefloquine resistant Plasmodium falciparum clinical isolate CP286 to IC50 for erythrocytic stage of Plasmodium falciparum 3D7.
Assay [3] can be described thus: Resistance index, ratio of IC50 for quinine and chloroquine resistant Plasmodium falciparum clinical isolate C2A to IC50 for erythrocytic stage of Plasmodium falciparum 3D7.

Turning to `Cc1ccc2c(CN[C@H]3CC[C@@H](Nc4ncc(C(=O)NO)cn4)CC3)cn(C)c2c1.Cl`, the Ratio IC50 in assay [1] turned out to be 2.6; in assay [2], 2.5; in assay [3], 2.2.

As to `COc1ccc2c(CN[C@H]3CC[C@@H](Nc4ncc(C(=O)NO)cn4)CC3)cn(C)c2c1.Cl`, the Ratio IC50 in assay [1] was 2.4; in assay [2], 3.4; in assay [3], 2.

Take `CCc1nc(N)nc(N)c1-c1ccc(Cl)cc1` [PYRIMETHAMINE]: in assay [2], the Ratio IC50 was more than 2020.
